What was measured:
HER2+BC = test: HER2+ BC bearing mice, anticancer efficacy; assay type: in vivo; conditions: 5 times twice a week; HFn-DOX 1 mg/Kg i.v., TZ 5 mg/Kg i.p.
From the text: (§1) Main end-point were cardiotoxicity and anticancer efficacy. […] Mitochondrial morphology has been checked for cardiotoxicity.

[1] = set-up: species or system mice; conditions: mouse, in vivo
From the text: as §1

DLS hydrodynamic size = assay type: physicochemical; conditions: after purification
From the text: This process results in a three fold increase in HFn production after scale-up with 1 L bioreactor system. To increase HFn purity we introduced an additional step consisting of a FPLC gel filtration using Superose 6 Increase 10/300 GL column. […] DLS profiles evidenced a uniform monodisperse population with a mean Hydrodynamic size of 11.98. HFn is negatively charged with ζ-potential of −24.8±0.8 mV. Mycoplasma assay and bacterial culture reveal that the HFn product is free of contamination.
The resulting solution was stirred at room temperature for 2 h. In order to remove the excess of doxorubicin (DOX) and the adsorbed molecules, the solution was loaded onto a ZEBA spin desalting column (Thermofisher). This procedure is reproducible and allows to recover about 25% of incubated HFn. The recovery of DOX is about 27%. The mixture of HFn-DOX (ferritin nanoparticle comprising doxorubicin) could be concentrated up to a concentration of 400 μg/mL DOX. The nanodrug can be stored at 4° C. for short storage, or at −20° C. for long storage. Native protein gel electrophoresis and TEM images evidenced that the structural integrity of the HFn-DOX nanocage is retained after loading. DLS profiles evidenced a uniform monodisperse population with a mean Hydrodynamic size of 12.44±1.1 nm. HFn is negatively charged with ζ-potential of −25±0.9 mV.

[2] = system: panel of murine and human cell lines of cancer, mainly breast cancer; test: Flow cytometry / confocal interaction of FITC-labelled HFn with cancer cell lines; assay type: cell-based
Procedure: Regarding in vitro activity, HFn interaction with cancer cells was assessed by flow cytometry after incubation of FITC-labelled HFn with a panel of murine and human cell lines of cancer, mainly breast cancer, for 2 h at 4° C. HUVEC cells were selected as healthy cells with high TfR1 expression.

[3] = Tumor targeting and biodistribution of Alexa fluor 660 labelled HFn in 4T1 tumor bearing mice; assay type: in vivo, BALB/c female mice
From the text: Then, we have assessed the in vivo activity of HFn-DOX nanodrug. We have used as proof of concept an ortotopic allograft breast cancer model obtained by injection of 4T1 cells in the mammary fat pad of 6-8 weeks old BALB/c female mice. This model is characterized by high level of proliferation, migration and invasiveness, DOX-inducible expression of MDR-1 (or P-glycoprotein) and stable luciferase expression. First, we have evaluated tumor targeting and biodistribution of the void HFn. HFn labelled with Alexa fluor 660 were injected into the tail vein of tumor bearing mice. […] There is then a quick disappearance of the fluorescent signal.

Row | Substance | tumor progression / antitumor potential (HER2+BC) | cardiotoxicity by mitochondrial morphology [1] | mean Hydrodynamic size (DLS hydrodynamic size) | specificity of interaction with cell lines ([2]; competition with unlabelled HFn, 2 h at 4° C.) | internalization and colocalization ([2]; confocal microscopy) | time at which the liver signal completely disappears ([3]; after injection) [h] | tumor tissue penetration ([3]; confocal images on tumor cryosections) | route of excretion ([3]; fluorescence in kidneys, bladder and urine) | accumulation in the liver ([3]; mouse, in vivo) | distribution to lung, brain and heart ([3]; mouse, in vivo) | localization in kidneys and spleen ([3]; mouse, in vivo) | time at which the tumor is reached after injection ([3]; tail vein injection, fluorescence in vivo and ex vivo) [h]
1 | TZ: monoclonal antibody Trastuzumab | good capability to reduce tumor progression | pathological increase in mitochondria area coupled with cristae depletion |  |  |  |  |  |  |  |  |  | 
2 | HFn: recombinant nanocage of the heavy chain of human ferritin produced in E. coli |  |  | 11.98 | specific | quickly internalized and colocalize with the transferrin receptor 1 | 48 | goes deep into the tumor tissue | renal excretion | massive accumulation in the liver | don't seem to be reached by HFn | little localization in kidneys and spleen within the first two hours post injection | 1

From patent US20210393539A1, “FERRITIN NANOPARTICLES COMPRISING A CHEMOTHERAPEUTIC AGENT” (INTHENA S.R.L., priority 2018, published 2021)
